Test results as given in PMC3130777, “Phase I Hydroxylated Metabolites of the K2 Synthetic Cannabinoid JWH-018 Retain In Vitro and In Vivo Cannabinoid 1 Receptor Affinity and Activity” (PLoS ONE, 2011).

Protein sequences, listed by entry. Tags and fused reporters are not part of them.
UniProt P47746, whole entry: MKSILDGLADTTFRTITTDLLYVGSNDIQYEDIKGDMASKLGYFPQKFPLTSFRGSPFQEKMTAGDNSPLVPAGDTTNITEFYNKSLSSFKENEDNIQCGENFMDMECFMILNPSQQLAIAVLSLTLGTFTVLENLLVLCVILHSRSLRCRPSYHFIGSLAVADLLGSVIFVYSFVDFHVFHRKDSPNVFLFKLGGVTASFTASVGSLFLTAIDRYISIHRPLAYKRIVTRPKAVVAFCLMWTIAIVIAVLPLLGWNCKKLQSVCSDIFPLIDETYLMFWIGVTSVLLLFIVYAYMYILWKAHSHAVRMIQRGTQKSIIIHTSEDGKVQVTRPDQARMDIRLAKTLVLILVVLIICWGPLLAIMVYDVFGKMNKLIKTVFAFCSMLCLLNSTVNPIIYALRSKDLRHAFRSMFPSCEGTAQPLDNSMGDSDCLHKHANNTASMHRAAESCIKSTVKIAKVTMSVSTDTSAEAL

Tests used:
CB1R [1] = molecular target: T1, CB1R (Mus musculus, UniProt P47746); type: biochemical
T1 construct: CB1Rs are endogenously expressed in abundant quantities in the CNS; from tissue; host or cells: whole brain of B6SJL mice, crude membrane homogenates

CB1R [2] = molecular target: T1, CB1R; type: binding

Compound: CCCCCc1cc(O)c2c(c1)OC(C)(C)[C@@H]1CCC(C)=C[C@@H]21 [Δ^9-THC, Δ^9-tetrahydrocannabinol, reference compound]
- Agonist type at mCB1Rs (partial or full) (CB1R [1]; 10 µM, compared with full agonist CP-55,940): partial
- EC50 (CB1R [1]; concentration-effect curve, Fig. 3B, n = 3–4, read-out: EC50 of G-protein activation): 167 ± 84.7 nM
- G-protein stimulation ([^35S]GTPγS bound) (CB1R [1]; receptor saturating concentration (10 µM), Fig. 3A): 0.07 ± 0.01 pmol/mg
- Ki (CB1R [2]; competition against 0.2 nM [^3H]CP-55,940, mouse whole brain membrane homogenates, mean ± SEM, n = 3–4, read-out: Affinity (Ki) for CB1Rs): 15.3 ± 4.5 nM
- Displacement of [^3H]CP-55,940 from CB1Rs (CB1R [2]; mouse brain homogenates, data not shown): 100%
